# Experimental data taken from patent US9295651B2, “Nanoconjugates and nanoconjugate formulations” (priority 2009, dated 2016).
# Values joined by “and” are separate entries in the source; they are usually repeats but may differ in a detail not shown here. Equal values may be shown once.
# Experiment: Lyophilization of PLGA-mPEG NPs in the presence of lyoprotectants, reconstitution with water, DLS
# Assay type: physicochemical
# Parameters: key to Aggr. (visible large aggregates): Y = aggregates observed; N = no aggregates observed
# Conditions: for Size in nm: PLGA-mPEG NPs lyophilized and reconstituted
# Protocol: Lyophilization of PLGA-mPEG NPs in the presence of lyoprotectants. An acetone solution of PLGA-mPEG (5 mg/mL, 100 μL) was added dropwise into a vigorously stirred water solution (4 mL) containing the NCs to make the PLGA-mPEG NPs. A lyoprotectant was added to the vigorously stirred NC solution at the selected lyoprotectant/NC mass ratio (varying from 2 to 20). The solution was then lyophilized, reconstituted with 2 mL water and stirred for 5 minutes. The sizes of the resulting NCs were analyzed by DLS.
substance,measurement,setting,value
bovine serum albumin [BSA],prevention of NP aggregation during lyophilization (in words),"PLGA-mPEG5k NPs, lyoprotectant/NP mass ratio up to 10",absolutely no precipitates
same,Size in nm,lyoprotectant/NP mass ratio 2,512 nm and 511.8 nm
same,Size in nm,lyoprotectant/NP mass ratio 6,176 nm and 175.9 nm
same,Size in nm,lyoprotectant/NP mass ratio 10,114 nm and 114.1 nm
same,Aggr. (visible large aggregates),lyoprotectant/NP mass ratio 2,Y
same,Distr. No. (number of particle size distributions),lyoprotectant/NP mass ratio 2,2
same,PDI,lyoprotectant/NP mass ratio 2,0.392
same,SL/SO (ratio of lyophilized NP size to pre-lyophilized NP size),lyoprotectant/NP mass ratio 2,8.2 and 8.21
same,Aggr. (visible large aggregates),lyoprotectant/NP mass ratio 6,N
same,Distr. No. (number of particle size distributions),lyoprotectant/NP mass ratio 6,1
same,PDI,lyoprotectant/NP mass ratio 6,0.343
same,Aggr. (visible large aggregates),lyoprotectant/NP mass ratio 10,N
same,Distr. No. (number of particle size distributions),lyoprotectant/NP mass ratio 10,1
same,PDI,lyoprotectant/NP mass ratio 10,0.110
same,SL/SO (ratio of lyophilized NP size to pre-lyophilized NP size),lyoprotectant/NP mass ratio 10,~1.8 and 1.83
